## AlphaSeq binding of Ab-14 light chain variants to a spike HR2 peptide

From the AlphaSeq antibody data of Li et al. 2023 (doi:10.1038/s41467-023-39022-2), copy in the FLAb collection.

Target peptide (SARS-CoV-2 spike, HR2 region): PDVDLGDISGINAS

Each scFv is VH, three GGGGS repeats, VL, as in the parent Ab-14, and differs from it in the CDRs of the light chain only.
VH: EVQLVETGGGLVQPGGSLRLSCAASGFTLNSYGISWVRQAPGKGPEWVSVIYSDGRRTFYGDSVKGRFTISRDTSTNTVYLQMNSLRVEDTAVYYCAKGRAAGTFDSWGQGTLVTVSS
VL: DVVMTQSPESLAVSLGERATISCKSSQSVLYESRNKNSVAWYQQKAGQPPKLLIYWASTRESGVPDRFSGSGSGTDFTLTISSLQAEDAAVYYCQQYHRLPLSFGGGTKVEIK

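Phage display of a naive human antibody library on the peptide gave the parent. Designed CDR sequences, proposed from the first random library and measured here. Group labels follow the data file (En: ensemble of fine-tuned language models; GP: Gaussian process model; HC: hill climbing; Gen: genetic algorithm; Gibbs: Gibbs sampling; a sequence that several methods proposed may carry one label only). In AlphaSeq, yeast of one mating type display the scFv and yeast of the other type display the target. After mating in shaken culture at 30 °C for 16 h, diploids were selected and their barcode pairs sequenced. Each replicate has its own calibration line, from reference interactions of the BCL2 family. The assay was run in six technical replicates.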

Each variant is given by its three light chain CDRs, as the data file delimits them; those of the parent are KSSQSVLYESRNKNSVA, WASTRES, QQYHRLPLS.
This list holds designs with more than six substitutions.
The read-out is the apparent dissociation constant on a log10 scale (nM): the lower, the stronger.
Where no diploid with the target was found in that replicate, the entry reads "nd": below detection, most likely a poor binder, though not proof of it.
The authors' rule: three or more of the six replicates give a measured affinity, fewer mean a poor binder.
The range of this assay differs from that of the first round, and the authors advise against merging the two.
Of ten entries with the parent sequence, four were seen in most replicates (averages 0.34 to 2.37), three in one and three in none, so single entries are noisy.
Background: pairings of all light chain designs with three empty control strains gave a value in 4% of cases (median 2.64, 5th percentile 1.59). Values in that range, when seen in few replicates, are hard to tell from nonspecific mating. For each scFv, signals with the empty controls are counted beside the result.

SLGLVTMLEYAGRNSVA / NNSTREQ / QQYDRLPLS [En_Gen]: nd, nd, 2.05, nd, nd, nd (controls 0 of 18).
TISQMTSLFSQSINNVA / EVSTREP / QQYDRLPLV [En_Gen]: 0.86, 0.56, 0.53, 0.62, 0.56, 0.55 (controls 2 of 18).
IVSQLMLWGMKAKNSIA / EAVTRLN / QQYDRLPLF [En_Gen]: nd, nd, nd, 1.42, 1.20, nd (controls 0 of 18).
MLGMTVMQGMVSRNSVA / QEETRAE / QQYHHLPLS [En_HC]: nd, 1.36, 0.66, 1.76, 0.18, 1.09 (controls 1 of 18).
NVGQSMDGEHRNKNSVA / HQSTRED / QHYHRLPLS [En_HC]: 1.57, 2.65, nd, 2.53, 1.68, nd (controls 1 of 18).
KITDDFLTEGNGRQNIA / HNNVACD / QQYQQLPLA [En_Gibbs]: 0.57, 0.45, 0.35, 0.35, 0.25, 0.51 (controls 0 of 18).
QLGKNQVGDTLSQHAIA / HDALRVD / QQYFRLPLL [En_Gibbs]: -0.05, 0.20, -0.21, 0.07, -0.04, 0.08 (controls 0 of 18).
NISIEDYSENNFANNVA / STDCRCD / QQYFMLPLM [En_Gibbs]: 1.70, 1.29, 1.12, 1.58, 2.07, 2.32 (controls 0 of 18).
QLAMITGHQSVEKNNVA / EMETREN / QQYDRLPLS [En_Gen]: nd, 2.33, nd, nd, 3.29, nd (controls 0 of 18).
RLSEISHFESKKKNSVA / ENSTREE / QQYDHLPLS [En_HC]: nd, 2.06, 1.38, 1.28, 1.44, 1.32 (controls 1 of 18).
KLTMISGLEKVSKNNVA / EMETRMR / QQYNRLPLS [En_Gen]: 0.23, 0.19, 0.37, 0.41, -0.18, 0.43 (controls 0 of 18).
MISQLYNMGSFAINSVA / QASTRNE / QQYDRLPLI [En_Gen]: 2.01, 1.30, 1.40, 1.74, 1.96, 2.00 (controls 1 of 18).
KVGGVTNGISFSKNSVA / EQSTRED / QQYDRLPLS [En_HC]: 1.05, 1.09, 0.64, 0.81, 1.09, 1.02 (controls 0 of 18).
KIGMTLNFLEHKQNNVA / DLVTREN / QQYHRLPLS [En_Gen]: 1.14, 1.40, 0.73, 1.66, 1.16, 1.12 (controls 0 of 18).
MIDMEEAPNKQQASSIA / QGGLRAK / QQYYRLPLC [En_Gibbs]: 0.18, 0.12, -0.07, -0.27, -0.02, 0.06 (controls 0 of 18).
KLSQITGHLSVSKNNVA / EMATREN / QQYDRLPLS [En_Gen]: nd, nd, nd, nd, nd, nd (controls 0 of 18).
MMSMGYLGGMRAKNNVA / QEETRES / QQYHRLPLI [En_HC]: nd, nd, nd, nd, nd, nd (controls 0 of 18).
KIRVNHLMFSQMESNIA / GSSVRSR / QQYYHLPLT [En_Gibbs]: 1.58, 1.38, 1.39, 1.48, 1.40, 1.47 (controls 0 of 18).
KVSLSVELESRLKNSVA / HASTREE / QQYHRLPLS [GP_Gibbs]: 0.09, -0.02, -0.05, 0.06, -0.13, -0.08 (controls 0 of 18).
KSMQEWEGQSRNKNSVA / HASKRES / QQYHRLPLS [GP_Gibbs]: 1.35, 0.68, 0.98, 0.93, 0.84, 0.76 (controls 3 of 18).
KFMQSWLGESLNKNSVA / NASQREH / QQYHRLPLS [GP_Gibbs]: 0.18, 0.60, 0.12, 0.20, 0.20, 0.34 (controls 0 of 18).
SLMHLSFVHPYEWNNVA / DASVKAS / QQYFRLPLV [En_Gibbs]: nd, 1.74, nd, 1.60, 1.41, 1.79 (controls 0 of 18).
MFDQQTMNENDKNNAVA / EVTHLVN / QQYAQLPLI [En_Gibbs]: nd, nd, nd, nd, nd, nd (controls 0 of 18).
MVGQGLMGESRAKNSIA / HASLRFD / QHYHRLPLI [En_HC]: 0.65, 0.67, 1.15, 2.64, 0.25, 0.91 (controls 2 of 18).
SFHEINFEGLATTANVA / NASYLFE / QQYFRLPLT [En_Gibbs]: 0.99, 1.74, 2.25, 1.25, 1.60, 1.56 (controls 0 of 18).
TIGQVMHYEDRNKNSVA / QTSTREE / QDYHRLPLS [En_HC]: 1.64, 1.38, 0.86, 1.28, 0.94, 0.96 (controls 4 of 18).
SMQSDQIGGNQQTNSIA / GESVADM / QHYERLPLS [En_Gibbs]: 2.68, 2.22, nd, 2.70, 1.83, nd (controls 1 of 18).
KLSQLGLYEQRNCNSVA / SASTRCS / QQYHRLPLF [GP_Gibbs]: 0.14, -0.08, -0.06, -0.10, 0.18, 0.19 (controls 3 of 18).
MISQLMNMGQFAINSVA / QASLRNE / QQYDRLPLQ [En_Gen]: 1.72, 0.84, 1.42, 0.87, 1.39, 1.07 (controls 1 of 18).
KLQQSWEYESRNSNNVA / QASTRSS / QQYHRLPLS [GP_Gibbs]: -0.10, -0.10, -0.27, -0.41, -0.22, -0.16 (controls 1 of 18).
KIGSGTNGEKFASNSVA / QTSTREE / QQYHRLPLS [En_HC]: nd, nd, nd, nd, nd, 1.84 (controls 0 of 18).
KQSQSAWMEERNFNSVA / HASTRES / QQYHRLPLS [GP_Gibbs]: 0.12, 0.12, -0.04, 0.18, 0.33, 0.11 (controls 0 of 18).
MVNGIMDHLSKQTNNVA / EMTTREE / QQYDRLPLS [En_Gen]: -0.13, 0.56, 0.30, 0.75, 0.28, 1.76 (controls 0 of 18).
KVSEFMRGLTQRKDSIA / DNNTRGS / QQYDRLPLS [En_Gen]: 1.39, 1.43, 1.55, 0.86, 1.75, 1.72 (controls 0 of 18).
KISQLVNFLGKNKNSVA / QMSTREQ / QQYDRLPLS [En_HC]: 0.57, 0.51, 0.57, 0.47, 0.59, 0.66 (controls 0 of 18).
QLGASHDMTSKNKNSVA / EQSTREN / QQYHRLPLS [En_HC]: 0.89, 0.56, 0.65, 0.44, 0.32, 0.64 (controls 3 of 18).
TLGDVTRMESTKKNSIA / DMSNRAD / QQYHRLPLS [En_HC]: 0.19, -0.25, 0.11, -0.21, -0.21, -0.01 (controls 0 of 18).
KLGQMTAIESRNLNSVA / QMDTREN / QQYDRLPLS [En_HC]: 1.07, 0.93, 1.73, 1.02, 1.39, 1.08 (controls 0 of 18).
KVSQSVEMQQRNPNSVA / SASTRLS / QQYHRLPLS [GP_Gibbs]: -0.06, -0.01, -0.28, -0.23, -0.23, 0.04 (controls 1 of 18).
IVSQLMLWGMKAKNSIA / EAQTRVN / QQYDRLPLI [En_Gen]: nd, nd, 2.39, nd, nd, nd (controls 0 of 18).
QIFQKLQEHGNGIANVA / QGAELRN / QQYFVLPLT [En_Gibbs]: 0.96, 1.55, 1.26, 1.30, 1.62, 2.00 (controls 1 of 18).
VLQQLGLYESRNKNSVA / SASTRLP / QQYHRLPLS [GP_Gibbs]: 0.21, 0.23, -0.15, -0.03, -0.08, 0.36 (controls 0 of 18).
KLSQSVRMESFNKNNVA / ENSTREA / QDYHRLPLS [En_HC]: 2.04, 1.84, 2.14, 2.38, 1.99, 2.04 (controls 3 of 18).
KVYMSVDYEDRNKNSVA / HASVRES / QQYHRLPLS [GP_Gibbs]: -0.10, -0.31, -0.02, -0.29, -0.38, -0.11 (controls 0 of 18).
KQSQSDEQESSNKNSVA / NASTREQ / QQYHRLPLS [GP_Gibbs]: 0.17, 0.14, -0.03, -0.04, -0.13, 0.30 (controls 0 of 18).
KVSWSVGYGSRNKNSVA / EASTRMS / QQYHRLPLY [GP_Gibbs]: -0.04, -0.37, -0.09, -0.28, 0.05, 0.11 (controls 0 of 18).
IISGSMLVESRNKNSVA / NAETREY / QHYDRLPLS [En_HC]: 1.40, 2.31, 1.67, 1.16, 1.42, 1.94 (controls 3 of 18).
MLSQMWALGMKAKNSVA / QASMRFN / QQYERLPLI [En_Gen]: 0.80, 0.15, 0.63, 0.13, 0.53, 0.87 (controls 0 of 18).
KVDLITNPGNLMHNSVA / AATVKWE / QQYSQLPLS [En_Gibbs]: 0.96, 0.53, 0.48, 0.37, 0.40, 0.84 (controls 0 of 18).

Extract of 4 entries:

CDR-L1,CDR-L2,CDR-L3,group,"replicates, log10 nM",control signals
MISQLMNMGQFAINSVA,QASLRNE,QQYDRLPLQ,En_Gen,"1.72, 0.84, 1.42, 0.87, 1.39, 1.07",1 of 18
KLSQLGLYEQRNCNSVA,SASTRCS,QQYHRLPLF,GP_Gibbs,"0.14, -0.08, -0.06, -0.10, 0.18, 0.19",3 of 18
SFHEINFEGLATTANVA,NASYLFE,QQYFRLPLT,En_Gibbs,"0.99, 1.74, 2.25, 1.25, 1.60, 1.56",0 of 18
SMQSDQIGGNQQTNSIA,GESVADM,QHYERLPLS,En_Gibbs,"2.68, 2.22, nd, 2.70, 1.83, nd",1 of 18